The entries are a selection whose mix differs from that of the whole data set. The source made the active and inactive calls.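 Rule for the calls: active = inhibition above 40% at the single screening dose; inactive = the rest.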
molecular target: DNA repair protein RAD51 homolog 1 (Homo sapiens) (UniProt Q06609); assay: blockers of RAD51-mediated homologous recombination – biochemical, fluorescence, primary screen (AID 1385); conditions: hRad51 DNA strand exchange, fluorescence dequenching; at 10 µM; stronger effect = higher value;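 note: 0% = DMSO control wells and 100% = blanks with heterologous ssDNA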

Sequences of proteins named here, by UniProt entry; tags and fusion partners are left off.
UniProt Q06609, whole entry: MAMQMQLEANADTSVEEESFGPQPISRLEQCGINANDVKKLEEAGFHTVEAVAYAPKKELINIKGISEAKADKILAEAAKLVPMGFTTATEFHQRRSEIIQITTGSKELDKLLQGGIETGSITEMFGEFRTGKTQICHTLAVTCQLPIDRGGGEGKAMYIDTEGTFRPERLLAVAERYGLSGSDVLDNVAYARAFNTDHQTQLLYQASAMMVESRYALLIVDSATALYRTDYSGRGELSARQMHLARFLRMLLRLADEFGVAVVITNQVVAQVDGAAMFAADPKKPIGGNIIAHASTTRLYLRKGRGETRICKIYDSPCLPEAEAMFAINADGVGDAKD

Row | Compound | inhibition
1 | CP(=O)(Nc1ccccc1Br)Oc1ccccc1 (stereo unspecified) | inactive: 14.2%
